The text below walks through data of patent US5968903A, “Inhibition of H. pylori proliferation” (Biomeasure, Incorporated, priority 1998, dated 1999).

By UniProt entry, the sequences of proteins in these tests, tags left out. Where a name states a change or a piece, a line headed by the entry shows the natural chain unless it says otherwise.
UniProt P30872: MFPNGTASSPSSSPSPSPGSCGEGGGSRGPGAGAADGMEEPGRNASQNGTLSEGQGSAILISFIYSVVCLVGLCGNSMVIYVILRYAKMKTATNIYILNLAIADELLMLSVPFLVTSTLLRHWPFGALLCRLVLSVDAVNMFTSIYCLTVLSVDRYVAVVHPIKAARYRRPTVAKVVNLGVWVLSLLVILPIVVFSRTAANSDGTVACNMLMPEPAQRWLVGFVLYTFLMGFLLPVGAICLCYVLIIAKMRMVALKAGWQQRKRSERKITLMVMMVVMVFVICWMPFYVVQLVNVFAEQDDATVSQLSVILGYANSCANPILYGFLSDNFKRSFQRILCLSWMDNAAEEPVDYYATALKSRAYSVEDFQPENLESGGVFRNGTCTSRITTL

The assay concerns the target human SSTR-1 (Homo sapiens, UniProt P30872). Briefly: Somatostatin receptor binding assay, hSSTR-1.

For orientation: Ki means a dissociation constant, usually derived from enzyme kinetics or from competition with a known ligand. In turn, `CC[C@@H]1NC(=O)[C@H](CCCCN)NC(=O)[C@@H](Cc2c[nH]c3ccccc23)NC(=O)[C@H](Cc2ccc(O)cc2)NC(=O)[C@@H](NC(=O)[C@@H](Cc2ccccc2)NS(=O)(=O)CCN2CCN(CCO)CC2)CSSC[C@@H](C(=O)N[C@H](C(N)=O)[C@@H](C)O)NC1=O` [Example 121] showed a Ki of 6.02 µM.
